# According to US12558350B2, “Compositions and methods for treatment” (Bausch + Lomb Ireland Limited, priority 2005, dated 2026):
# By UniProt entry, the sequences of proteins in these tests, tags left out. Residues count along the entry.
# UniProt P05107, 23-769 limits assumed: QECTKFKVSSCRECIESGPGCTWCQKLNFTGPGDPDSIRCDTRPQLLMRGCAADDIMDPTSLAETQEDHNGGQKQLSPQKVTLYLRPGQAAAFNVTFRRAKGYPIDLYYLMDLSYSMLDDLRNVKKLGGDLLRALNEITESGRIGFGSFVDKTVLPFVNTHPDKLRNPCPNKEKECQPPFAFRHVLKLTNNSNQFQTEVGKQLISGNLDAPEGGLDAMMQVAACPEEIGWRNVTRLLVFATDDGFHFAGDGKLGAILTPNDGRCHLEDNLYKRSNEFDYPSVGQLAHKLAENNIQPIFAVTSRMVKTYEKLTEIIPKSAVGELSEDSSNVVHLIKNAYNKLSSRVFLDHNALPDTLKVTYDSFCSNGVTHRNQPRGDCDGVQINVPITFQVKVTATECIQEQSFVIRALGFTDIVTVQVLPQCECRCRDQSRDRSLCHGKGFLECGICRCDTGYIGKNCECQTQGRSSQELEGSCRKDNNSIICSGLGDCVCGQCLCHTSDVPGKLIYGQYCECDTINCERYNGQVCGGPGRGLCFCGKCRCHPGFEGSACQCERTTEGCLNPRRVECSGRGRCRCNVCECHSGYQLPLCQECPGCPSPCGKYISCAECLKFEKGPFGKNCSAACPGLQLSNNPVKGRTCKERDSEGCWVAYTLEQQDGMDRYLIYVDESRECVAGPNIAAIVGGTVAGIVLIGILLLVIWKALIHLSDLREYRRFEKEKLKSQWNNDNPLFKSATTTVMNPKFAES
# UniProt P20701, 26-1170 limits assumed: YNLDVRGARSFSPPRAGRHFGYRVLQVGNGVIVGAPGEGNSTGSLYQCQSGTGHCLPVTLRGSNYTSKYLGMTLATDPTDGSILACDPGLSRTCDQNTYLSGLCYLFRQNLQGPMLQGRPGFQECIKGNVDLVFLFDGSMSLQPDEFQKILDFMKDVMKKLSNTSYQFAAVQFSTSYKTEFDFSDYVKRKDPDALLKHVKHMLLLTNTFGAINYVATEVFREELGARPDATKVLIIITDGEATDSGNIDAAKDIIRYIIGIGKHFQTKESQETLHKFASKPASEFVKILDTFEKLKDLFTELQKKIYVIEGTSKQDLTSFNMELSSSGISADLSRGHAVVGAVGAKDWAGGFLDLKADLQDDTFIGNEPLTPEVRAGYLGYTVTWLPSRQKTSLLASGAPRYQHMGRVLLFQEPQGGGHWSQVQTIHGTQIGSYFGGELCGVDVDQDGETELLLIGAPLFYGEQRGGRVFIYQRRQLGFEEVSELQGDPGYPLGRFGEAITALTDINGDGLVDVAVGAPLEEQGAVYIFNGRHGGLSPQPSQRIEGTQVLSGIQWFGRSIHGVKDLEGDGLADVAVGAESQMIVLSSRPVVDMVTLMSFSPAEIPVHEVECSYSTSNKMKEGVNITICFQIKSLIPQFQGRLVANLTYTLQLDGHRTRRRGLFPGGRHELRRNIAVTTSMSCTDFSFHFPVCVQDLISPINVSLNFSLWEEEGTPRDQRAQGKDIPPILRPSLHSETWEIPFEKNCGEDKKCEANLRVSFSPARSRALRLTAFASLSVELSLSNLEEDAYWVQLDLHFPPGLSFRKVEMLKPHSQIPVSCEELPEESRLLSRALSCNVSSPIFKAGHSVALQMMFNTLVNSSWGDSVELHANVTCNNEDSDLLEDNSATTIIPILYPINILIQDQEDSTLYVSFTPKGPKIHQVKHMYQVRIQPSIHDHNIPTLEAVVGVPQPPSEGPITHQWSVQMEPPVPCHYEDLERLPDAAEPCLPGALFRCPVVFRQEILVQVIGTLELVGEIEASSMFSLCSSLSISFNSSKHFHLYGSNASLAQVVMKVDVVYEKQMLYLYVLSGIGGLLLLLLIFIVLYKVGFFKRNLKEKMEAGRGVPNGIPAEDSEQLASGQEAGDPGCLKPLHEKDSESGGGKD
# Assays:
# [1] = tested on: LFA-1 induced lymphocyte proliferation; conditions: read-out: IC50, inhibition of LFA-1 induced lymphocyte proliferation; in vitro; Gadek et al. 2002; cited from earlier work
# [2] = target: T1, LFA-1 (Homo sapiens, UniProt P05107+P20701); test: LFA-1/small molecule ELISA, antagonist competition with compound 2B; conditions: read-out: IC50, inhibition of binding of compound 2B to LFA-1; 25 nM compound 2B; FIG. 8B
# [3] = target: T2, LFA-1/ICAM-1 (Homo sapiens, UniProt P05107+P20701); test: LFA-1/ICAM-1 ELISA, antagonist competition; format: binding; conditions: FIG. 8A
# [4] = target: T1, LFA-1; test: Photocrosslinking of tritium-labeled compound 5 to LFA-1, SDS-PAGE and autoradiography; conditions: 290 μM compound 3 during incubation; gel filtered
# [5] = target: T2, LFA-1/ICAM-1; test: LFA-1/ICAM-1 ligand binding ELISA with Schild analysis
# [6] = target: T1, LFA-1; test: LFA-1/small molecule ligand binding ELISA; conditions: FIG. 10B, D, F
smiles,measurement,setting,value
O=C(NC[C@H](NC(=O)c1c(Cl)cc(CCC(O)c2cccc(O)c2)cc1Cl)C(=O)O)c1cccs1 (stereo partly drawn),IC50,[1],3 nM
NC(=O)C[C@H](NC(=O)c1ccc(C(=O)NCc2cccc(O)c2)cc1Cl)C(=O)O,IC50,[2],3 nM
same,IC50,"[3]; read-out: IC50, inhibition of binding of ICAM-1-Ig to LFA-1, MnCl2",2 nM
same,effect on incorporation of tritium from compound 5 into the αL subunit,[4],substantially reduced
same,effect of increasing antagonist concentration on ICAM-1-Ig binding curves,"[5]; FIG. 10A, C, E",shifted the binding of ICAM-1-Ig to higher EC50 values with minimal variation in maximal ICAM-1-Ig binding
same,slope of Schild regression,"[5]; ligand ICAM-1-Ig, FIG. 11",1.24
same,y-intercept of Schild regression,"[5]; ligand ICAM-1-Ig, FIG. 11",10.9
same,effect of increasing antagonist concentration on compound 2B binding curves,[6],shifted the compound 2B binding curves to higher EC50 values with no reduction in maximal binding
NCCCCCC(=O)NCCCC[C@H](NC(=O)c1ccc(C(=O)NCc2cccc(O)c2)cc1Cl)C(=O)O,"IC50 relative to that of compound 3, inhibition of ICAM-1-Ig binding to LFA-1",[3],approximately 10 fold
